This note sets out measurements from US20020183518A1, “Modulators of proteins with phosphotyrosine recognition units” (ONTOGEN CORPORATION, priority 1995, published 2002).

Protein sequences, listed by entry. Tags and fused reporters are not part of them. Residues count along the entry.
UniProt P18031, 3-277 limits assumed: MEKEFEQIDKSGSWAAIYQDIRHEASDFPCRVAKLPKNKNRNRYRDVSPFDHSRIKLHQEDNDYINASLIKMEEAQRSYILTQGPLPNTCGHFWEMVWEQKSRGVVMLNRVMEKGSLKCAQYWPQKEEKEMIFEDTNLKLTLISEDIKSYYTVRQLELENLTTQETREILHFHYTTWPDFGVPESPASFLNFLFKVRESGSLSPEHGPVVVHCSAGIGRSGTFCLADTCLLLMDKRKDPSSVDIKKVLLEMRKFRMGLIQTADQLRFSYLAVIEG
UniProt P08575, 599-1306 limits assumed: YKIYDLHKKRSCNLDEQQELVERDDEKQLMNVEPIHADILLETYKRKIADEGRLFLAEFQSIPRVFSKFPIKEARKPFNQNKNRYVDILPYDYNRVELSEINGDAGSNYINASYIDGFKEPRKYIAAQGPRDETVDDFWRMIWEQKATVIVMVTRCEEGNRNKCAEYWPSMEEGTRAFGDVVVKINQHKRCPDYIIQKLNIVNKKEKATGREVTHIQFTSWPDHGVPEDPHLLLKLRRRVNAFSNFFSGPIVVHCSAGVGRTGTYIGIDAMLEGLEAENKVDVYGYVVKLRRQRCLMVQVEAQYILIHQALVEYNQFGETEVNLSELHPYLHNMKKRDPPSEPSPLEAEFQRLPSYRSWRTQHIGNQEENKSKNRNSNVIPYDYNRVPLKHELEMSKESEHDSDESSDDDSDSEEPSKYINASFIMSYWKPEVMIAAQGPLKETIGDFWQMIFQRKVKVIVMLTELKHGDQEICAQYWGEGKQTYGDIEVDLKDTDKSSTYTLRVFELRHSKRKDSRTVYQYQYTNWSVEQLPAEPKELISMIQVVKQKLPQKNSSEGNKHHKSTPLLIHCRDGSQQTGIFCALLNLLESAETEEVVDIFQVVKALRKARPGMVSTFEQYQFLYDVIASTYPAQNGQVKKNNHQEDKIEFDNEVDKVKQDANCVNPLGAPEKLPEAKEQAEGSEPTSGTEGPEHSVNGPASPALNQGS

One experiment deals with PTP-1B (Homo sapiens, UniProt P18031). Nature of the experiment: In vitro PTPase inhibition assay (pNPP, colorimetric), PTP-1B. Format: biochemical. Particulars: read-out: IC50 values against PTP1B; Table 9; tested form: TFA. As for the experimental part:
PTP-1B enzymatic activity of samples was assayed in microtiter plates as follows. The protein concentration of the PTP-1B enzyme preparation was determined using the Bio-Rad Protein Assay kit (Bio-Rad, Hercules Calif.). […] Reactions were mixed gently and incubated at 37° C. for 60 minutes. Enzymatic cleavage of phosphate from pNPP (a tyrosine phosphate analog) is marked by a colorimetric change in this substrate. See, e.g., Imbert et al., Biochem J., 297:163-173 (1994); Ghosh and Miller, Biochem. Biophys. Res. […] Zanke et al., Eur. J. […] To determine the enzymatic activity, absorbance readings of the reactions were measured at 405 nm using a Molecular Devices Thermomax Plate Reader (Menlo Park Calif.). […] Purified phosphatase was added to the reaction mixtures to begin the reactions; the reactions were incubated at 37° C. for 60 min. […] (for PTP-1C and PTPα assays), stopped, and colorimetrically analyzed as described above. […] First, absorbance readings from the negative control reactions were treated as a baseline and subtracted from the absorbance readings of the experimental reactions. Then, for each reaction, a percent inhibition was calculated using the following formula: […] For each inhibitor compound tested, an IC50 concentration was calculated from a best-fit computer analysis of the calculated percent inhibition for the various dilutions of the compound. […] The protein concentration of the PTP-1B enzyme preparation was determined using the Bio-Rad Protein Assay kit (Bio-Rad, Hercules Calif.). […] To determine the enzymatic activity, absorbance readings of the reactions were measured at 405 nm using a Molecular Devices Thermomax Plate Reader (Menlo Park Calif.). […] (for PTP-1C and PTPα assays), stopped, and calorimetrically analyzed as described above. […] First, absorbance readings from the negative control reactions were treated as a baseline and subtracted from the absorbance readings of the experimental reactions. Then, for each reaction, a percent inhibition was calculated using the following formula: […] […]

Another experiment deals with CD45 (Homo sapiens, UniProt P08575). Put plainly: In vitro PTPase inhibition assay (pNPP, colorimetric), CD45. Particulars: read-out: IC50 values against CD45; Table 9; tested form: TFA. Format: biochemical. How it is done:
CD45 enzymatic activity of samples was assayed in microtiter plates as follows. […] Louis Mo.), and 80 ul of activity assay buffer (100 mM sodium acetate, pH 6.0, 1 mM EDTA, 0.1% Triton X-100, 15 mM bME). Reactions were mixed gently and incubated at 37° C. for 60 minutes. […] To determine the enzymatic activity, absorbance readings of the reactions were measured at 405 nm using a Molecular Devices Thermomax Plate Reader (Menlo Park Calif.). […] Purified phosphatase was added to the reaction mixtures to begin the reactions; the reactions were incubated at 37° C. for 60 min. […] (for PTP-1C and PTPα assays), stopped, and colorimetrically analyzed as described above. […] First, absorbance readings from the negative control reactions were treated as a baseline and subtracted from the absorbance readings of the experimental reactions. Then, for each reaction, a percent inhibition was calculated using the following formula: […] For each inhibitor compound tested, an IC50 concentration was calculated from a best-fit computer analysis of the calculated percent inhibition for the various dilutions of the compound. […] To determine the enzymatic activity, absorbance readings of the reactions were measured at 405 nm using a Molecular Devices Thermomax Plate Reader (Menlo Park Calif.). […] (for PTP-1C and PTPα assays), stopped, and calorimetrically analyzed as described above. […]

For `CCCCNC(=O)c1[nH]c(-c2ccc(/C=C/C(=O)O)cc2)nc1-c1ccc(F)cc1`, the IC50 (usually the point on the concentration scale where inhibition reaches its midpoint) at PTP-1B was 5900 nM.

Take `O=C(O)/C=C/c1ccc(-c2nc(-c3ccc(Br)s3)[nH]c2-c2ccc(/C=C/C(=O)O)cc2)cc1`: the IC50 at PTP-1B worked out at 1500 nM; on CD45 it was 0.985 µM. The corresponding values for `COc1ccc(-c2nc(-c3ccc(/C=C/C(=O)O)s3)n(CC(C)c3ccccc3)c2C(=O)NCCCCCC(=O)O)cc1` (centres unmarked) are 1200 nM and 20 µM.
